This is an account of results in article PMC7539012, “Hyperphosphorylated tau aggregation and cytotoxicity modulators screen identified prescription drugs linked to Alzheimer's disease and cognitive functions” (Scientific Reports, 2020).

Data set [1] relates to SH-SY5Y cells.
Data set [2] concerns SH-SY5Y cells. The source holds these as a separate data set.

Where a name gives a salt, the structure may show the parent alone.
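Throughout, for ThS net change: 30 µM compound with 6 µM p-tau over 16 h.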

In the data set on 1N4R p-tau, `CNCC[C@@H](Oc1cccc2ccccc12)c1cccs1.Cl` [(R)-Duloxetine hydrochloride] displayed a ThS net change of 497.

In the case of `CN1CCc2cccc3c2[C@H]1Cc1ccc(O)c(O)c1-3` [Apomorphine, R-(−)-apomorphine hydrochloride], the “effect on LD50 of p-tau” value with SH-SY5Y cells [1] was “caused the LD50 values of p-tau to increase progressively”. Further, the “cytotoxicity of p-tau C/A and C/S mutants” value with SH-SY5Y cells [2] is “reduction of p-tau C/A and C/S cytotoxicity”. `C[C@@H]1C[C@H]2[C@@H]3C[C@H](F)C4=CC(=O)C=C[C@]4(C)[C@@]3(F)[C@@H](O)C[C@]2(C)[C@@]1(O)C(=O)CO` [Flumethasone] yielded a ThS net change with 1N4R p-tau of 377. Regarding `CCN(Cc1ccncc1)C(=O)C(CO)c1ccccc1` (stereo not drawn) [Tropicamide], the ThS net change in the data set on 1N4R p-tau is given as 345.

In the data set with 1N4R p-tau, Thimerosal registered a ThS net change of 377.
